# Reference: patent US20210346495A1, “METHODS AND COMPOSITIONS COMPRISING AN NFKB INHIBITOR AND AN ADJUVANT” (priority 2018, published 2021)
# Test system: systemic TNF-a and IL-6
# Assay: Systemic cytokines after vaccination with NF-kB inhibitor, CpG and ovalbumin (Example 2)
# Type: in vivo, mouse
# Conditions: one hour post-vaccination
smiles,measurement,value
"COc1cc(O)c2c(c1)/C=C/C[C@H](O)[C@H](O)C(=O)/C=C\C[C@H](C)OC2=O [5-z-o, 5Z-7-Oxozeaenol]",systemic IL-6,about a two-fold decrease in IL-6 levels
same,systemic TNF-a,reduced the TNF-a levels by two-fold
